Measurements from US20170224833A1, “SELF-ASSEMBLING MOLECULES THAT ACCUMULATE IN ACIDIC TUMOR MICROENVIRONMENTS” (OHIO STATE INNOVATION FOUNDATION, priority 2014, published 2017).

Experiment: Fluorescence anisotropy (FA) in salt solution (150 mM NaCl, 2.2 mM CaCl2; optionally MSA or PEG)
Type: physicochemical
Conditions: dye directly conjugated to albumin (control)
Experimental: Fluorescence and FA measurements were done using 20-100 μM of PA mixtures in 150 mM NaCl and 2.2 mM CaCl2 and various serum (MP Biomedicals) concentrations (0.75-100% v/v) diluted in the same salt buffer. PA samples in serum or MSA were not heated and cooled. All samples were then pH adjusted using HCl/NaOH solutions, transferred to a 96-well plate followed by collection of fluorescence emission from PA-(Rubipy)3 first parallel (Ipar) and then perpendicular (Iperp) to the excitation polarization using a hybrid reader fluorimeter (BioTek Synergy H4) at room temperature. The excitation wavelength used was 458 nm and the emission was monitored using a 640/20 nm filter. The same method was followed for control experiments involving serum background samples, dye conjugated MSA, only 1.5% PA-(Rubipy)3 in serum and 100 μM PA mixture in MSA and salt buffer. FA was calculated using the following equation:
pH dependent FA values of a 100 μM PAmix1 in the same isotonic salt solution (FIG. 17A) were then obtained. […] The end of this transition was defined as the pH point below which the FA became constant again. The transition profile measured via FA correlated well with that obtained from the pH dependent CD spectra (FIG. 17B). The FA transition onset at 6.98 is close to the most basic pH CD spectrum at 7.10 that started to deviate from a superimposable random coil morphology. […]

MSA-dye conjugate: Ru(bipy)3^2+ dye directly conjugated to pure Mouse Serum Albumin (MSA), FA control
FA, constant over pH and time: ~0.04
